Measured values reported in patent publication US6630464B1, “Cyclin dependent kinase (CDK)4 inhibitors and their use for treating cancer” (The United States of America as represented by the …, priority 1997, dated 2003).

Amino acid sequences for entries named in this document (tags omitted). A change or cut given only in a name is not applied to a line headed by its entry.
UniProt P06493, whole entry: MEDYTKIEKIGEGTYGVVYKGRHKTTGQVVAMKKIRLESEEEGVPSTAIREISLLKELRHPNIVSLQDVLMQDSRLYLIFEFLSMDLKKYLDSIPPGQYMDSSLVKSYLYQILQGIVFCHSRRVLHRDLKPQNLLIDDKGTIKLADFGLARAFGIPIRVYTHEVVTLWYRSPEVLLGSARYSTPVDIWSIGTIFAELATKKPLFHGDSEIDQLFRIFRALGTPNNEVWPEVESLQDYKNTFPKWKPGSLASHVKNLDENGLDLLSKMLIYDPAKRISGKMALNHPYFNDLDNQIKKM
UniProt P11802, whole entry: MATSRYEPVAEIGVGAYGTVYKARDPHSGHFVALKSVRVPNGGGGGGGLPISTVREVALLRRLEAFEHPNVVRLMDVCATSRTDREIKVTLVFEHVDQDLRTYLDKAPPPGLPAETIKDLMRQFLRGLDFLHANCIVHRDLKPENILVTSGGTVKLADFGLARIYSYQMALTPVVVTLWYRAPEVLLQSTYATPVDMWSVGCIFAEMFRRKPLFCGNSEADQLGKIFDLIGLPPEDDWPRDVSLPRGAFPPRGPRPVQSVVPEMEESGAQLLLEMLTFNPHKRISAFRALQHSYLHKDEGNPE
UniProt P20248, whole entry partner: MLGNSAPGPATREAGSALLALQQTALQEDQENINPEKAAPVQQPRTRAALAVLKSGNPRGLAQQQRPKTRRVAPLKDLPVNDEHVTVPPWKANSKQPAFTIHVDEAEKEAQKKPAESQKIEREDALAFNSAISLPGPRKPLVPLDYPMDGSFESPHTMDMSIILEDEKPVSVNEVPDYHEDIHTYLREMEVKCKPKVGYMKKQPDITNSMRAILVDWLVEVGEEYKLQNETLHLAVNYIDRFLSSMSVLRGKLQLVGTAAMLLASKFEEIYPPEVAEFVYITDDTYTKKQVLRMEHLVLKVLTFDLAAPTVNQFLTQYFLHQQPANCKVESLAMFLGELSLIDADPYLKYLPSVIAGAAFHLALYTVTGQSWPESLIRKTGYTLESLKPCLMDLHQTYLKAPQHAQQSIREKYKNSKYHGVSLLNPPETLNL
UniProt P24385, whole entry partner: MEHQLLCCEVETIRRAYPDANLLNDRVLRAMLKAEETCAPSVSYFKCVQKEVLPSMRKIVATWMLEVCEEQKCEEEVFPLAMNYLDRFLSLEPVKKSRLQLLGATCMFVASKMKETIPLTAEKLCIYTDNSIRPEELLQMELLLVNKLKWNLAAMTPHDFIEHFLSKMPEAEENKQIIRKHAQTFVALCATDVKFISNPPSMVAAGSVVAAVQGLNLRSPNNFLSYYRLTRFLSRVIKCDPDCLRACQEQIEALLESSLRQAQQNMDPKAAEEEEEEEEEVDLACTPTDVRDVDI

Experiments:
[1] = target: CDC2:cyclin A (Homo sapiens, UniProt P06493); test: In vitro kinase assay, CDC2:cyclin A; format: biochemical
[2] = target: CDK2:cyclin A (Homo sapiens, UniProt P24941); test: In vitro kinase assay, CDK2:cyclin A; format: biochemical; conditions: concentrations up to 100 μM
[3] = target: CDK2:cyclin E (Homo sapiens, UniProt P24941); test: In vitro kinase assay, CDK2:cyclin E; format: biochemical; conditions: concentrations up to 100 μM
[4] = target: CDK4:cyclin D1 (Homo sapiens, UniProt P11802); test: In vitro kinase assay, CDK4:cyclin D1, GST-Rb substrate

CCN1C(Cl)=NS(=O)(=O)c2ccccc21
Ratio CDC2A:CDK4 ([1]; (IC50 CDC2)/(IC50 CDK4)): > 58.8 | CDC2 kinase inhibitory activity ([1]; concentrations up to 100 μM): no CDC2 or CDK2 kinase inhibitory activity | IC50 ([1]; read-out: IC50 value CDC2/A): > 100 µM | CDK2 kinase inhibitory activity (CDK2:cyclin A) [2]: no CDC2 or CDK2 kinase inhibitory activity | CDK2 kinase inhibitory activity (CDK2:cyclin E) [3]: no CDC2 or CDK2 kinase inhibitory activity | CDK4 kinase inhibitory potency compared with parent compounds ([4]; parents 3-ATA and Compound 6): more potent CDK4 kinase inhibitors than the parent compounds | IC50 ([4]; read-out: IC50 value CDK4/D1): 1.7 µM
